For one molecule, Ki results are on record in ChEMBL document CHEMBL1146036, “Structural determinants of opioid activity in derivatives of 14-aminomorphinones: effect of substitution in the aromatic ring of cinnamoylaminomorphinones and codeinones” (J Med Chem, 2006).

Amino acid sequences for entries named in this document (tags omitted). A change or cut given only in a name is not applied to a line headed by its entry.
UniProt P41143, whole entry, looked up: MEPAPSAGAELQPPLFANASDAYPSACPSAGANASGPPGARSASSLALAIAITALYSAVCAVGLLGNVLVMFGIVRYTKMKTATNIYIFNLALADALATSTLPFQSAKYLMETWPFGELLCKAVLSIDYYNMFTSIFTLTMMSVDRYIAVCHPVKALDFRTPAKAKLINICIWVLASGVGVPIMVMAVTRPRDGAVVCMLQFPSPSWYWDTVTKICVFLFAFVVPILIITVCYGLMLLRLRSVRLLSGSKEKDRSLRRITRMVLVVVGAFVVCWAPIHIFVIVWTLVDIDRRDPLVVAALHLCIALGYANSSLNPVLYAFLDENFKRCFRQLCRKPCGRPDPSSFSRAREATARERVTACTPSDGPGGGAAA
UniProt P35372, whole entry, looked up: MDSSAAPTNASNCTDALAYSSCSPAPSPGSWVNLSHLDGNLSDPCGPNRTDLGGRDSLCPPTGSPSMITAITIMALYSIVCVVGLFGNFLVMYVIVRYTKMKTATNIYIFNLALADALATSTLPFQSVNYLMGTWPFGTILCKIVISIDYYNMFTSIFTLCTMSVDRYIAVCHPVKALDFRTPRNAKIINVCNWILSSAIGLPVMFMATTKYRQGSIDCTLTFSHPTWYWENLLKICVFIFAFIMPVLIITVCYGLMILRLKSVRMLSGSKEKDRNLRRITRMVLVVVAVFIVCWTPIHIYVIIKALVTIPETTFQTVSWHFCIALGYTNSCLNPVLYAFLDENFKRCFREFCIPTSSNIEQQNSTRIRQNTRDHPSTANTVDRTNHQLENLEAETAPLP
UniProt P41145: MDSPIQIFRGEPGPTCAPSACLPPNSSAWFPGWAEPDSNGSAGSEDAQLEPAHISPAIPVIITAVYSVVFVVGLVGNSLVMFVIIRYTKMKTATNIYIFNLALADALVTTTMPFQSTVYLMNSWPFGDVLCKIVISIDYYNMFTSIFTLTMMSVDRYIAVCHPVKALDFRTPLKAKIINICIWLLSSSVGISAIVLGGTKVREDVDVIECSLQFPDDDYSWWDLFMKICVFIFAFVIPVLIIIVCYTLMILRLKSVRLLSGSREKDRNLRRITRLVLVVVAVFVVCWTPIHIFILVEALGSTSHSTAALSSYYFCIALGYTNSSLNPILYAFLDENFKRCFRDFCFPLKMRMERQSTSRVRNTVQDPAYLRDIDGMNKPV

As usually defined, the Ki is the equilibrium dissociation constant of an inhibitor or competing ligand from its target.

For test [1], the target named is Delta-type opioid receptor (Homo sapiens, UniProt P41143). The experiment in a line: Displacement of [3H]Cl-DPDPE from human recombinant DOR expressed in CHO cells. Type of test: cell-based. Background: Displacement assays read how much labelled ligand stays bound in the presence of the test substance.
The target in another test is Mu-type opioid receptor (Homo sapiens, UniProt P35372). As to the kind of experiment: Displacement of [3H]DAMGO from human recombinant MOR expressed in CHO cells.
For test [2], the target named is Kappa-type opioid receptor (Homo sapiens, UniProt P41145). As to the kind of experiment: Displacement of [3H]U-69593 from human recombinant KOR expressed in CHO cells.

Take `CN1CC[C@]23c4c5cccc4O[C@H]2C(=O)CC[C@@]3(NC(=O)/C=C/c2ccccc2Cl)[C@H]1C5`: the Ki in test [1] worked out at 80 pM; at Mu-type opioid receptor, 150 pM; in test [2], 540 pM.
